From PubChem BioAssay AID372 (MTDP, 2006)
The list shows a part of the results, in another mix than the full data. Some results for these compounds are left out of this collection, so the calls shown say nothing about other tests. Activity calls are given as the source filed them. No stated cut-off is given here; in the data, active means inhibition above about 50%; inactive means the rest.

Each compound was assayed against Gag-Pol polyprotein (Human immunodeficiency virus type 1 group M subtype B (isolate HXB2)) (UniProt P04585) (assay: RNase H inhibition, HIV 1 Gag Pol polyprotein, FRET biochemical assay, screening (AID 372)). Details: HIV-1 RT RNase H, FRET RNA/DNA substrate fluorescence; at 10 µM; hits give high values.

| SMILES | inhibition |
| --- | --- |
| COc1ccc(OC)c(C=C(C#N)C#N)c1 | inactive: 11% |
| N#CC(C#N)=Cc1ccc(Br)cc1 | inactive: 17% |
